Assay results from PubChem BioAssay (EPA / NIEHS).
The entries are a selection whose mix differs from that of the whole data set. The source made the active and inactive calls. The calls were made as follows: active = hit-call score of the fitted dose curve at least 0.9, where 1 is the maximum; inactive = score below 0.9.

Experiment: ATG_ERE_CIS: Attagene CIS-FACTORIAL HepG2 Assay for Estrogen Response Element (ERE) (AID 2282940)
Details: HepG2 ERE cis-reporter, Attagene RNA transcript; actives raise or lower the signal
Method: ATG_CIS is a cell-based, multiplexed-readout assay that uses HepG2, a human liver cell line, with measurements taken at 24 hours after chemical dosing in a 24-well plate.ATG_ERE_CIS is one of 52 assay component(s) measured or calculated from the ATG_CIS assay. It is designed to make measurements of mRNA induction, a form of inducible reporter, as detected with fluorescence intensity signals by Reverse transcription polymerase chain reaction (RT-PCR) and Capillary electrophoresis technology.Data from the assay component ATG_ERE_CIS was analyzed into 1 assay endpoint. This assay endpoint, ATG_ERE_CIS, was analyzed with bidirectional fitting relative to DMSO as the negative control and baseline of activity. Using a type of inducible reporter, measures of mRNA for gain or loss-of-signal activity can be used to understand the reporter gene at the transcription factor-level as they relate to the gene ESR1. Furthermore, this assay endpoint can be referred to as a primary readout, because this assay has produced multiple assay endpoints where this one serves a reporter gene function. To generalize the intended target to other relatable targets, this assay endpoint is annotated to the nuclear receptor intended target family, where the subfamily is steroidal.
Human liver HepG2 cells are transiently transfected with multiple reporter transcription units (MRTUs) in 6-well plates using FuGene 6 reagent (Roche; 3 ml FuGene/1 mg DNA). The MRTU constructs are regulated by a cis-regulating element (promoter). […] A major difference between the CIS and TRANS system is that in CIS activities of endogenous TFs are measured, whereas the TRANS assay evaluates changes in activities of exogenous, chimeric NR-Gal4 proteins. […] At the end of 24 hour incubation, total RNA was isolated using TriZol reagent (Invitrogen). The isolated RNA is then reverse-transcribed using oligo(dT) primer and Mo-MLV reverse transcriptase (Invitrogen) with DNAse I (Ambion) treatment for 30 min. The one-tenth of the produced cDNA was amplified by PCR using Taq DNA polymerase (Invitrogen) and two reporter sequence-specific primers. The PCR products were fluorescently labeled by primer extension with 6-arboxyfluorescein (6-FAM) 5'-labeled reporter sequence-specific primer (2 min at 95 C, 20 s at 68 C and 10 min at 72 C) and these products were digested with 5U of HpaI (New England Biolabs) for 2h at 37 C. The fragments were purified using Qiaquick PCR columns (Qiagen), analyzed on an ABI 3130xL genetic analyzer (Applied Biosystems) with peak positions identified by using a set of X-rhodamine (ROX)-labeled MapMarker1000 molecular weight standards (BioVentures). The raw capillary electrophoresis data was processed using Attagraph software (Attagene).

| SMILES | outcome | AC50 |
| --- | --- | --- |
| CCCCO[P+](=O)OCCCC | inactive |  |
| CCCCC(CC)CO[P+](=O)OCC(CC)CCCC (stereo not drawn) | inactive |  |
| O=[P+](Oc1ccccc1)Oc1ccccc1 |  | active: 6.02 µM |
| O=C(Cl)Oc1ccccc1 | inactive |  |
| O=[p+]1oc2ccccc2c2ccccc21 (stereo not drawn) | inactive |  |
| ClP(Cl)c1ccccc1 | inactive |  |
| CN(C(=O)Cc1cccc2occc12)[C@H]1CC[C@@]2(CCCO2)C[C@@H]1N1CCCC1 | inactive |  |
| O=P(Cl)(Oc1ccccc1)Oc1ccccc1 | inactive |  |
| CCCCOP(OCCCC)OCCCC | inactive |  |
| Cc1cc([N+](=O)[O-])cc([N+](=O)[O-])c1O | inactive |  |
| O=[N+]([O-])c1ccc([N+](=O)[O-])cc1 | inactive |  |
| O=[As]c1ccccc1 (stereo not drawn) | inactive |  |
| CC(C)CCCCCCCOP(OCCCCCCCC(C)C)Oc1ccccc1 |  | active: 100 µM |
